Earlier results on one substance are cited in US11325900B2, “5-(pyrimidin-4-yl)thiazol-2-yl urea derivatives as therapeutic agents” (AUCENTRA HOLDINGS PTY LTD, priority 2018, dated 2022).

By UniProt entry, the sequences of proteins in these tests, tags left out. Where a name states a change or a piece, a line headed by the entry shows the natural chain unless it says otherwise.
UniProt P49336: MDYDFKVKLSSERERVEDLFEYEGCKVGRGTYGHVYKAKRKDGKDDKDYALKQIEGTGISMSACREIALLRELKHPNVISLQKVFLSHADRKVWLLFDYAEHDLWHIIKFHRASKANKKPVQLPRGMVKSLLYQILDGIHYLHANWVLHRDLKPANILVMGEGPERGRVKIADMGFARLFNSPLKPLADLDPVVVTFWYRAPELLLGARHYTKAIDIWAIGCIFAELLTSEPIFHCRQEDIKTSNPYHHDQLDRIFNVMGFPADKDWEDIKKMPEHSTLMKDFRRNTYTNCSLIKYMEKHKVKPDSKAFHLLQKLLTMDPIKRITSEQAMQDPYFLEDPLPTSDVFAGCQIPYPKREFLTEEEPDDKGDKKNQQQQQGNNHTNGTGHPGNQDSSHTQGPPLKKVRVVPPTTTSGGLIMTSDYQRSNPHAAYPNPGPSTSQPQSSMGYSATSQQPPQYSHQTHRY

The target of the data set is CDK8 (Homo sapiens, UniProt P49336). The conditions noted are these: background, Pelish et al. 2015; cited from earlier work.

For cortistatin A, the “CDK8 inhibition (in words)” value is “potent and selective inhibitor of CDK8”.
